Two compounds from US8791099B2, “Transition metal complexes of corroles for preventing cardiovascular diseases or disorders” (Technion Research and Development Foundation Ltd., priority 2007, dated 2014) can be followed below.

The test system of this assay is LDL. As to the kind of experiment: Oxidation of LDL by peroxynitrite (SIN-1). Conditions: 5 μM corrole, 250 μM SIN-1, absorbance at 234 nm.

Regarding `O=S(=O)(O)c1cc2[n]3c1C(c1c(F)c(F)c(F)c(F)c1F)=C1C=CC4=[N+]1[Fe-]31[n]3c(cc(S(=O)(=O)O)c3-2)C(c2c(F)c(F)c(F)c(F)c2F)=c2ccc([n]21)=C4c1c(F)c(F)c(F)c(F)c1F` (centres unmarked) [1-Fe, 5,10,15-tris(pentafluorophenyl)-2,17-bis(sulfonic acid)-corrolato iron(III)], the “Effect on SIN-1 induced conjugated dienes formation in LDL” value is “totally preventing conjugated dienes formation”.

In the case of `O=S(=O)(O)c1cc2[n]3c1C(c1c(F)c(F)c(F)c(F)c1F)=C1C=CC4=[N+]1[Mn-]31[n]3c(cc(S(=O)(=O)O)c3-2)C(c2c(F)c(F)c(F)c(F)c2F)=c2ccc([n]21)=C4c1c(F)c(F)c(F)c(F)c1F` (centres unmarked) [1-Mn, 5,10,15-tris(pentafluorophenyl)-2,17-bis(sulfonic acid)-corrolato manganese(III)], the “Effect on SIN-1 induced conjugated dienes formation in LDL” value is given as “pro-oxidant”.
